Data on one compound can be found in ChEMBL document CHEMBL3351329, “Radiosynthesis and evaluation of an 18F-labeled positron emission tomography (PET) radioligand for metabotropic glutamate receptor subtype 4 (mGlu4)” (J Med Chem, 2014).

Chains of the proteins cited; added tags and fusions are not shown. Lines headed by an entry give the natural chain unless they say otherwise; changes in a name come on top.
UniProt P31423: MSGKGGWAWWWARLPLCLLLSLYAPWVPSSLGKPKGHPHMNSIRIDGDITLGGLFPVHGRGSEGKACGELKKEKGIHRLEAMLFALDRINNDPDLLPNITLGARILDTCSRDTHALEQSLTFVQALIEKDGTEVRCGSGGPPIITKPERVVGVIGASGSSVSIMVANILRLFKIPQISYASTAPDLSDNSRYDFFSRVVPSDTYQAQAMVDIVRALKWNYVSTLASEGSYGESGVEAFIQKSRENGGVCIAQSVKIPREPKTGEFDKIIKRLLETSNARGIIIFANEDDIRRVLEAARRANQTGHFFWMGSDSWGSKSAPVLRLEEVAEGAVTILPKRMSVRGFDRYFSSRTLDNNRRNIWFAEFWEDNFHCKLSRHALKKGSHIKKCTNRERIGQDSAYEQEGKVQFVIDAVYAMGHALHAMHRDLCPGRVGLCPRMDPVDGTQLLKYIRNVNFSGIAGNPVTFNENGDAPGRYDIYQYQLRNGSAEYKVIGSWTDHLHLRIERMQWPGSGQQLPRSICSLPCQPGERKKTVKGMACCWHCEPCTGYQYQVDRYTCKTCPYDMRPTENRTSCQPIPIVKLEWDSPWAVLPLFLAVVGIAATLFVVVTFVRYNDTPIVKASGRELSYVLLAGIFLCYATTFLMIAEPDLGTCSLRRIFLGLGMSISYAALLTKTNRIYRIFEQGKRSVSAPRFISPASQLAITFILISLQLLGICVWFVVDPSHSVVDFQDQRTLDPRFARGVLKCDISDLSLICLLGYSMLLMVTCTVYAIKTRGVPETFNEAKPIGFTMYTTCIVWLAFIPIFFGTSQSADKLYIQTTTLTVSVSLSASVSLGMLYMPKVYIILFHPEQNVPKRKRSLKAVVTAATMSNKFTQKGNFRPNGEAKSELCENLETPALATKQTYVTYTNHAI

The assay has as its target Metabotropic glutamate receptor 4 (Rattus norvegicus, UniProt P31423). In words: Displacement of [3H]ML128 from rat mGlu4 receptor expressed in CHO cells after 30 mins by liquid scintillation counting analysis. The class given is cell-based. Put shortly: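 Whole freshly harvested CHO cells stably expressing rat mGlu4 (G418-selected), 50 000 per tube, incubated with 10 nM [3H]1 plus competitor (0.01 nM–10 μM) 30 min at room temperature. Cells pelleted at 4 °C, washed three times with cold medium, lysed in 0.5% NaOH at 56 °C, then counted by liquid scintillation. Nonspecific binding defined with 10 μM unlabeled 1. Triplicates.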
Background: In a radioligand displacement assay an active substance lowers the binding of a labelled ligand.

SMILES strings stand for the structures. pIC50: −log10 of the molar value.

Usually pIC50 stands for −log10 of the IC50, conventionally taken in molar units. Higher therefore signals a low IC50. For the compound `COc1cc(NC(=O)c2ccccn2)ccc1Cl`, the pIC50 was 7.89.
